Source: PMC9819389, “Antiandrogenic and Estrogenic Activity Evaluation of Oxygenated and Nitrated Polycyclic Aromatic Hydrocarbons Using Chemically Activated Luciferase Expression Assays” (International Journal of Environmental Research and Public …, 2022)

Chains of the proteins cited; added tags and fusions are not shown. Lines headed by an entry give the natural chain unless they say otherwise; changes in a name come on top.
UniProt P10275: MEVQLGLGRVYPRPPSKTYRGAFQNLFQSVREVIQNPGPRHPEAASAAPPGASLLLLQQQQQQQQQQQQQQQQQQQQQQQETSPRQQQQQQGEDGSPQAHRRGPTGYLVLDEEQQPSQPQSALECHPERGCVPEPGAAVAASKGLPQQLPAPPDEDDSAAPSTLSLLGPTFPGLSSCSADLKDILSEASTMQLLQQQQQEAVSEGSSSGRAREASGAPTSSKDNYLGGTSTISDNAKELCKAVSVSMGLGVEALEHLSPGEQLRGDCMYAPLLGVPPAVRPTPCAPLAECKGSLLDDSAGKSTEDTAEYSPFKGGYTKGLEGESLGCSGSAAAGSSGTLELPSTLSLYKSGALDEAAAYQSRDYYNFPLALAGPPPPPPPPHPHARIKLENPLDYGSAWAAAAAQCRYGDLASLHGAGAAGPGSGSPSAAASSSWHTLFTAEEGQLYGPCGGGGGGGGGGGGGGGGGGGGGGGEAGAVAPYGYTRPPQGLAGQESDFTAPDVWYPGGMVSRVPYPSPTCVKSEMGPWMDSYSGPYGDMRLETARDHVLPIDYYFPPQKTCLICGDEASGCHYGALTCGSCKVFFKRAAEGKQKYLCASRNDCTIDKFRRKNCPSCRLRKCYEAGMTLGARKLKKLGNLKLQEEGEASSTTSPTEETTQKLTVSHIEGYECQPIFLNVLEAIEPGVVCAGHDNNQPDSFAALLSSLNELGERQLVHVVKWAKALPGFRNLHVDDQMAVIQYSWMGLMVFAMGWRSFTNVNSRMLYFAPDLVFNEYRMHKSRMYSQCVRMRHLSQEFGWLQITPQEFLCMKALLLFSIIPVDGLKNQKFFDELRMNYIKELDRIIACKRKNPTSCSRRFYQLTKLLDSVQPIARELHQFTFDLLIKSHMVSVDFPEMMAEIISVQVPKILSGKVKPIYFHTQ

Molecular target: human AR (Homo sapiens, UniProt P10275)
Experiment: AR-CALUX assay, antiandrogenic (AR antagonistic) activity, U2OS-luc cells
Format: cell-based
Parameters: host or cells: human U2OS-luc (osteoblastic osteosarcoma) cells

O=[N+]([O-])c1ccc2ccc3ccc([N+](=O)[O-])c4ccc1c2c34 [1,8-DNPy, 1,8-dinitropyrene]
IC25: 170 nM | pIC50: 6.14

pIC50: −log10 of the molar value.
